Data reported in PubChem BioAssay AID602147 (Vanderbilt Specialized Chemistry Center, 2011).

Sequences of proteins named here, by UniProt entry; tags and fusion partners are left off. A change or cut given only in a name is not applied to a line headed by its entry.
UniProt O14939: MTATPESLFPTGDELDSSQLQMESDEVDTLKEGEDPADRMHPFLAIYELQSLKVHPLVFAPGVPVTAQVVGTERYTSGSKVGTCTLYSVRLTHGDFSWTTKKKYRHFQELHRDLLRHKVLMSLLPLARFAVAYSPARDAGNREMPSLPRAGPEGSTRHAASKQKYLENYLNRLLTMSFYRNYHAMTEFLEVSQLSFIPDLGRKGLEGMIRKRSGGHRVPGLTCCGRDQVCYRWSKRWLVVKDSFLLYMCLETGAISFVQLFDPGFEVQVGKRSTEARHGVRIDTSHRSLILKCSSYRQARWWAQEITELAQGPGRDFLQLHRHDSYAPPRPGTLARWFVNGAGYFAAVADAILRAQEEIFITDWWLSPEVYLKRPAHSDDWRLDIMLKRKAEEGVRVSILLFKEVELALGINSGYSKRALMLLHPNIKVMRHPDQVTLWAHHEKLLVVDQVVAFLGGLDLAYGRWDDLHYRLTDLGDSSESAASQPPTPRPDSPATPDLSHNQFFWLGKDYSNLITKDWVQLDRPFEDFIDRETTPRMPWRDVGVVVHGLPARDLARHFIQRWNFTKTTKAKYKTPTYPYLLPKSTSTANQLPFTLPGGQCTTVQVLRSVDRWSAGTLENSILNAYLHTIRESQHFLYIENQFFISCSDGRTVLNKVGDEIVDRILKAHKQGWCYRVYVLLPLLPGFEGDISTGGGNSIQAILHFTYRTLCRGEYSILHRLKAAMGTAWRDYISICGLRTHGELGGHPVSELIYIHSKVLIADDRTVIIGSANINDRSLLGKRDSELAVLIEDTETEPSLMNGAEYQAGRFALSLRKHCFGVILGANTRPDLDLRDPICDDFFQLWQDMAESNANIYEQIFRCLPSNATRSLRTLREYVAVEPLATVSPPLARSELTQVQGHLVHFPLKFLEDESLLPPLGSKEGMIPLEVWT

Target: Phospholipase D2 (Homo sapiens) (UniProt O14939)
Assay: PLD2 inhibitor potency in cells, dose response (AID 602147)
Details: cellular PLD2 activity assay, concentration response

SMILES	IC50
C[C@@H](CN1CCC2(CC1)C(=O)NCN2c1ccccc1)NC(=O)c1ccc2ccccc2c1	140 nM
O=C(NCCN1CCC2(CC1)C(=O)NCN2c1cccc(F)c1)c1ccc2ccccc2c1	20 nM
